# An excerpt weighted towards active compounds, which were near 1.1% of everything screened.
# miR-21 reporter – raises the signal of a miR-21 reporter | HeLa miR-21 FLuc reporter, luciferase, 48 h | Potency, µM (highest dose often 38.3 µM), inactives show at the highest dose reporter change, positive = more light | 340,000 tested, under 10 active | AID 2288; active = well fitted rising curve with a large enough effect; inconclusive = small, poorly fitted or top-dose-only effect; inactive = no such curve, though single readings can be large or run the other way;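 note: % of control where 0% means no effect; miR-21 action dims this reporter so a rising signal means less miR-21 action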
#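 Compounds were titrated across several concentrations (up to approximately 40 uM) and incubated 48 hours with HeLa miR-21-FLuc reporter cells (miR-21 target sequence downstream of FLuc, endogenous miR-21). Readout was firefly luciferase luminescence after lytic detection reagent.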
# PINK1 modulator – modulators of PINK1 expression | PINK1 immunofluorescence, high-content cytometry, 24 h | 410,000 tested, 0.2% active | Potency, µM (titrated, usually from 76.6 µM), without a hit: at the highest dose activation (PINK1 increase), most hits filed as activators; active means well fitted activation curve with a large enough effect; inconclusive means small, poorly fitted or top-dose-only effect; cell line not stated here; further: potency means the concentration at half of the fitted maximal effect; % of control where 0% means no effect; nearly all actives have a fitted effect of over 65% in size
#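 Compound titrations (5 concentrations, 24 h) on a stable cell line; DMSO and CCCP controls. Endpoint: fixed-cell PINK1 immunofluorescence with mitochondrial, cell and nuclear markers, scanned by microplate cytometer.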
# rTrxR1 inhibitor – blocks rat thioredoxin reductase 1 | Potency, µM (titrated, usually from 114 µM), inactives show at the highest dose activity change, negative = inhibition, actives largely listed as inhibitors | 390,000 tested, 1% active | O89049 | AID 588453 | recombinant rTrxR1, NADPH fluorescence consumption, selenite substrate; further: potency means the concentration at half of the fitted maximal effect; on the % scale 0 is the no-effect control and ±100 the full control effect; nearly all actives have a fitted effect of over 65% in size
#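 Rat TrxR1 (90 nM in the dispensed reagent) was pre-reduced with 400 uM NADPH for 5 min at room temperature, then incubated with compound for 15 min. After 400 uM selenite was added, NADPH fluorescence (Ex 340/Em 450 nm) was followed for 8 min.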
# GALK inhibitor – galactokinase (human) inhibition; Potency, µM (doses to about 57.5 µM), for inactives: top-dose activity change, negative = inhibition, actives largely listed as inhibitors; 270,000 tested, 0.007% active; Purified GALK, Kinase-Glo residual ATP luminescence; further: potency means the concentration at half of the fitted maximal effect; on the % scale 0 is the no-effect control and ±100 the full control effect
#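 Human GALK (5 nM) with 35 uM ATP and 100 uM galactose in 20 mM HEPES pH 8.0, 5 mM MgCl2, 60 mM NaCl, 1 mM DTT, 0.01% BSA. After 1 h at room temperature, leftover ATP was read by Kinase-Glo Plus luminescence.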
# TrxR1 substrate – substrates of rat thioredoxin reductase 1. purified TrxR1 substrate turnover, NADPH consumption readout. Potency, µM (series often up to 114 µM), without a hit: at the top dose activity change, negative = substrate turnover. 390,000 tested, 0.01% active; further: potency means the concentration at half of the fitted maximal effect; on the % scale 0 is the no-effect control and ±100 the full control effect; nearly all actives have a fitted effect of over 50% in size
#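 Rat TrxR1, dispensed at 90 nM, was prereduced with 400 uM NADPH (final) for 5 min at ~22 deg C, then incubated with compound 15 min before 400 uM selenite. A first-read NADPH fluorescence drop versus no-compound background flagged substrates.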
# * = called active by the depositor; i = inactive; ? = inconclusive; · = no result given; ! = repeats disagree; [ ] = another dose, or the depositor's remark. Unless noted, the call rests on the fitted dose curve; in most records, active means well fitted curve in the direction sought with a large enough effect; inconclusive means small, poorly fitted or top-dose-only effect, or another doubt; inactive means no such curve, though single readings can be large; an effect the other way counts as inactive or inconclusive.
SMILES,miR-21 reporter,PINK1 modulator,rTrxR1 inhibitor,GALK inhibitor,TrxR1 substrate
COCCn1c(C)cc(O)c(C(c2ccccc2OC)N2CCCCC2)c1=O (stereo not drawn),-0.5%,2.2%,-13.6%[57.1 µM],·,5.2%[57.1 µM]
Cc1ccc(S(=O)(=O)c2nc(C(C)(C)C)oc2N2CCOCC2)cc1,-0.4%,4.8%[38.3 µM],0.562µM*,0.9%,11.3%[57.1 µM]
COc1ccc(NC(C)=O)cc1S(=O)(=O)N1CCn2cccc2C1C (stereo not drawn),·,1.5%,50.1µM*,·,-10.8%
Cc1cccc(S(=O)(=O)c2cn(Cc3ccccc3)c3cc(N4CCC(C)CC4)c(F)cc3c2=O)c1,0.1%,0.2%,14.6%,·,27.3%
Cc1ccc(N2C(=O)[C@@H]3[C@H](C2=O)[C@H]2C=C(C(=O)c4ccccc4)C=CN2[C@@H]3C(=O)c2ccc(Cl)cc2)cc1,-1.5%,-0.1%,-21.7%[57.1 µM],2.6%,6.0%[57.1 µM]
O=C(C1=C[C@@H]2[C@H]3C(=O)N(c4cccc(Cl)c4)C(=O)[C@H]3[C@@H](C(=O)c3ccc(Cl)cc3)N2C=C1)c1ccccc1,-2.6%,1.1%,50.1µM*,2.5%,0.3%
CC1(C)CCC2=C(O1)c1ccccc1C(=O)C2=O,·,0.0%,25.1µM*!,·,17.8µM*
CC1(C)CCC(=O)c2ccccc21,·,0.2%,7.4%[57.1 µM],·,5.3%[57.1 µM]
CCCSCCCNC(=O)c1ccc2c(c1)sc1nc(-c3ccc(OCC)cc3)cn12,-1.4%,0.2%,6.9%,·,4.0%
O=C(Nc1ccc(Cl)cc1Cl)c1cccc(N2C(=O)C=CC2=O)c1,-10.8%,-0.6%,2µM*,-3.6%,5.3%
O=C(O)c1cccc(N2C(=O)C=CC2=O)c1,·,-1.1%,·,·,·
COc1cc(C=Nc2ccccc2C(=O)Nc2ccccc2)cc(OC)c1OC,-24.0%,0.4%,22.4µM*,·,101.4%
CC(=O)c1cccc(NC(=O)CN2C(=O)CC(c3ccc(C)cc3C)=Nc3ccccc32)c1,1.1%,-0.9%,-13.1%[57.1 µM],·,-16.5%[57.1 µM]
CC(Sc1ccsc1[N+](=O)[O-])C(=O)NCc1ccco1 (stereo not drawn),9.1%,0.6%,20µM*,8.1%,-6.0%
CC(=O)N1CCN(c2nnc(-c3ccccc3)c3ccccc23)CC1,-2.2%,-0.6%,5.0%,4.0%,-2.9%
Cc1ccc(-c2nnc(N3CCN(C(=O)c4ccco4)CC3)c3ccccc23)cc1,23.3%,0.0%,56.2µM*,1.8%,-4.6%
Cc1cc(C)c2nc(N3CCCN(C(=O)c4ccco4)CC3)c(C#N)cc2c1,-15.7%,·,10µM*,2.4%,23.4%
Cc1nc(N2CCN(C(=O)c3ccco3)CC2)c(C#N)c2c1CCCC2,-20.4%,4.4%,12.0%,6.9%,22.2%
Cn1nccc1C(=O)NCC1CCC2(CCN(Cc3ccc(-c4ccc(Cl)cc4)o3)CC2)O1 (stereo not drawn),·,-1.0%,·,·,·
Nc1ccc(-c2ccc(C(=O)O)s2)cn1,-5.8%,3.1%,15.8µM*,2.3%,i
CCCc1cc(NC(=O)CCl)n(-c2ccccc2)n1,21.5%,3.4%,50.1µM*,0.1%,-1.4%
CC(C)(C)c1cc(NC(=O)CCl)n(-c2ccccc2)n1,?,-2.5%,?,-2.8%,8.7%
COc1ccc(OC)c(NC(=O)c2cc3cc(C)ccc3n2C)c1,-15.7%,0.7%,15.1%,·,24.5%
CCN1c2ccccc2N(C)C1(C)c1ccccc1 (stereo not drawn),?,?,44.7µM*,0.5%,-10.4%
Cc1ccc(S/C=C\C(=O)c2ccccc2)cc1,-1.3%,12.6µM*,?,1.7%,-1.1%

# In another format: entries from further up
miR-21 reporter | PINK1 modulator | rTrxR1 inhibitor | GALK inhibitor | TrxR1 substrate | SMILES
-2.6% | 1.1% | 50.1µM* | 2.5% | 0.3% | O=C(C1=C[C@@H]2[C@H]3C(=O)N(c4cccc(Cl)c4)C(=O)[C@H]3[C@@H](C(=O)c3ccc(Cl)cc3)N2C=C1)c1ccccc1
· | 0.2% | 7.4%[57.1 µM] | · | 5.3%[57.1 µM] | CC1(C)CCC(=O)c2ccccc21
? | -2.5% | ? | -2.8% | 8.7% | CC(C)(C)c1cc(NC(=O)CCl)n(-c2ccccc2)n1
1.1% | -0.9% | -13.1%[57.1 µM] | · | -16.5%[57.1 µM] | CC(=O)c1cccc(NC(=O)CN2C(=O)CC(c3ccc(C)cc3C)=Nc3ccccc32)c1
? | ? | 44.7µM* | 0.5% | -10.4% | CCN1c2ccccc2N(C)C1(C)c1ccccc1 (stereo not drawn)

# Next entries.
SMILES,miR-21 reporter,PINK1 modulator,rTrxR1 inhibitor,GALK inhibitor,TrxR1 substrate
Cc1ccc(C(=O)C=CNNC(=O)c2ccccc2)cc1,-38.4%,2.7%,-6.2%,-1.0%,-3.2%
O=C(O)/C=C/C(=O)c1ccc(O)cc1,-10.1%,-1.6%,17.8µM*,-1.5%,-5.8%
O=C(O)/C=C/C(=O)Nc1ccc(O)cc1,0.8%,2.7%,70.8µM*,·,-1.3%
Cc1ccc(C(=O)/C=C/c2ccc(-c3ccc(C)cc3)o2)cc1,-13.2%,17.2%,17.8µM*,1.3%,-8.6%
CCN(CC)S(=O)(=O)c1ccc(C(=O)/C=C/c2ccc(-c3ccc([N+](=O)[O-])cc3)o2)cc1,-5.4%,0.4%,-19.7%,1.4%,-1.8%
O=C(O)/C=C/C(=O)Nc1ccc(C(=O)c2ccccc2)cc1,13.7%,3.0%,0.6%,1.8%,-14.4%
COc1cc2[nH]c(=O)n(CCCCCC(=O)N3CCN(c4ccc(Cl)cc4)CC3)c(=O)c2cc1OC,2.7%,1.8%,-7.8%,·,-6.4%
CCN1CCCC1CNC(=O)c1cnn(-c2nccc(-c3cc(OC)ccc3OC)n2)c1C (stereo not drawn),·,-0.8%,·,·,·
Cc1ccc(C(=O)/C=C\C(=O)c2ccc(C)cc2)cc1,-7.8%,2.2%,5.01µM*,1.6%,6.5%
O=C(/C=C\c1ccc(-c2ccccc2)o1)c1ccccc1,-59.3%,13.2%,10µM*,-0.1%,-7.0%
NS(=O)(=O)c1ccc(CCNc2ncnc3c2cnn3-c2cccc(Cl)c2)cc1,-0.4%,-0.5%,15.8%[57.1 µM],·,-2.9%[57.1 µM]
O=C(/C=C/c1ccco1)NCC(=O)N/N=C/c1ccc([N+](=O)[O-])cc1,1.3%,1.3%,44.7µM*,1.2%,-9.6%
O=C(/C=C/c1ccco1)NCC(=O)N/N=C/c1ccc(Cl)cc1,-2.9%,6.1%,-21.2%,-0.4%,0.7%
COc1cc(C(=O)NCC(c2ccc3c(c2)OCO3)N2CCOCC2)cc(OC)c1OC (stereo not drawn),-3.3%,1.3%,23.3%[57.1 µM],·,-3.3%[57.1 µM]
NC(=O)N/N=C/c1ccc(-c2ccc([N+](=O)[O-])cc2)o1,-48.2%,0.7%,10.3%,·,-7.8%
O=C(Cc1ccccc1)N/N=C/c1ccc(-c2ccc([N+](=O)[O-])cc2)o1,-4.6%,7.94µM*,-16.7%,-1.5%,-13.1%
O=[N+]([O-])c1ccc(-c2ccc(/C=N/O)o2)cc1,-29.3%,-0.5%,10.3%[57.1 µM],-1.6%,5.8%[57.1 µM]
COCCNC(=S)N/N=C/c1ccc(-c2ccc([N+](=O)[O-])cc2)o1,1.3%,44.7µM*,?,0.2%,-1.6%
CCOc1ccc(NC(=O)[C@@H](c2ccccc2)N2Cc3ccccc3C2=O)cc1,3.2%,0.9%,13.7%,·,2.7%
CC1(C)Cc2c(C#N)c(N3CCOCC3)nc(-c3ccccc3)c2CO1,-12.4%,0.1%,13.8%[57.1 µM],-5.1%,26.7%[57.1 µM]
CC1CCN(c2nc(-c3ccco3)c3c(c2C#N)CC(C)(C)OC3)CC1,-0.3%,3.6%,8.91µM*,-2.2%,21.3%
O=C(Nc1ccccc1)C1=C(c2ccccc2)S(=O)(=O)CCS1(=O)=O,?,1.4%,0.224µM*,-1.5%,-0.6%
COc1cc(-c2cc(C)c3c(OC)ccc(OC)c3n2)cc2c1OCCN(C(=O)Cn1nc(C)cc1C)C2,·,-0.3%,·,·,·
CCCCNC(=O)c1sc2ncnc(N3CCc4ccccc4C3)c2c1C,2.0%,-2.8%[38.3 µM],2.82µM*,-2.4%,25.1%
CCOC(=O)CNC(=O)c1sc2ncnc(N3CCc4ccccc4C3)c2c1C,8.4%,10.7%,-17.6%,-2.6%,-6.9%

# Bioassay records as filed in PubChem BioAssay.
